This note sets out measurements from patent publication US7259266B2, “Benzopyran compounds useful for treating inflammatory conditions” (Pharmacia Corporation, priority 2003, dated 2007).

The chains behind the UniProt entries cited, without tags or fusion partners. Residues count along the entry.
UniProt P23219, 24-599 limits assumed: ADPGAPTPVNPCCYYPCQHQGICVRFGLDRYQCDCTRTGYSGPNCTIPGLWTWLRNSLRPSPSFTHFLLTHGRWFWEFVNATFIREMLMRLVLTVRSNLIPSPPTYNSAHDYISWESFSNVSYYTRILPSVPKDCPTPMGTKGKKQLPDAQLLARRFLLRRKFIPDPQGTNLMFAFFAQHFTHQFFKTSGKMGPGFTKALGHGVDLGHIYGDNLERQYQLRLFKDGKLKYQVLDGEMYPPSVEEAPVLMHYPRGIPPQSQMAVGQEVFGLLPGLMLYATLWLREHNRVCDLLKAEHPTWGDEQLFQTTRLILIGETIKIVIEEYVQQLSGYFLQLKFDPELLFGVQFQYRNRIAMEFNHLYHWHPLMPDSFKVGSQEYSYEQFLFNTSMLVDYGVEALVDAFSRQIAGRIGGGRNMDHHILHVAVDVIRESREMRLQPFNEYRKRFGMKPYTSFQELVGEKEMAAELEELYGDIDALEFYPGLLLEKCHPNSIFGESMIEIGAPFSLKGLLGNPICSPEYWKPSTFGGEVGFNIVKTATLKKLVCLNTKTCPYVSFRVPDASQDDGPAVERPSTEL
UniProt P35354, 18-604 limits assumed: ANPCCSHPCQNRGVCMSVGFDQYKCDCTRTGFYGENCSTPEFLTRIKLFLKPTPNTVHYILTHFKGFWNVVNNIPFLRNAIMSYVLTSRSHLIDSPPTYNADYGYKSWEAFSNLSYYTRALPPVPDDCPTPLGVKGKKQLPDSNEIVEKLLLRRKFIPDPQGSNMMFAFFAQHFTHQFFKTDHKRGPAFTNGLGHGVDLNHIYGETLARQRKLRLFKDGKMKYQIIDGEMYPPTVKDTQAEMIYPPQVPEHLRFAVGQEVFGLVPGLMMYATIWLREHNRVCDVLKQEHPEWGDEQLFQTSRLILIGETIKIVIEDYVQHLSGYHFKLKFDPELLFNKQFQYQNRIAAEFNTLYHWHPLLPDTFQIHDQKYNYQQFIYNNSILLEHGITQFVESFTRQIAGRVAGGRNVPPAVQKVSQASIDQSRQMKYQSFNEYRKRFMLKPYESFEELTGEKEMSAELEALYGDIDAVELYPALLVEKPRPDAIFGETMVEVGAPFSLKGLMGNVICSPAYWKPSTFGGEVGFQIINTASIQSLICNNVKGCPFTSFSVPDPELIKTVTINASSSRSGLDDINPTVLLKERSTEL

Test [1] concerns the target T1, COX-1 (Homo sapiens, UniProt P23219). The test is described as follows: Assay for COX-1 activity (PGE2 formed, ELISA). The following applies: read-out: hCox-1 IC50. (ELISA stands for enzyme-linked immunosorbent assay.)
The target in test [2] is T2, COX-2 (Homo sapiens, UniProt P35354). Briefly: Assay for COX-2 activity (PGE2 formed, ELISA). Format: biochemical, human or murine. The following applies: read-out: hCox-2 IC50.
Test [3] deals with T2, COX-2. The test is described as follows: Modified assay for COX-2 activity (PGE2 formed, ELISA). It counts as biochemical, human or murine.
Test [4] deals with T1, COX-1. The test is described as follows: Modified assay for COX-1 activity (PGE2 formed, ELISA). To be noted: read-out: hCox-1 Modified IC50, pre-incubated 10 minutes at 25° C., reaction stopped after two minutes, pH 7.5.
The mark [5] stands for this setting: recombinant hCox-1, compounds pre-incubated 10-20 minutes, reaction stopped after ten minutes, pH 8.0.
The mark [6] stands for this setting: recombinant hCox-2, compounds pre-incubated 10-20 minutes, reaction stopped after ten minutes, pH 8.0.
[7] abbreviates: read-out: hCox-2 Modified IC50, pre-incubated 10 minutes at 25° C., reaction stopped after two minutes, pH 7.5.
The mark [8] stands for this setting: read-out: hCox-2 Modified IC50, human COX-2.

Molecules are shown by their SMILES. “And” between values parts separate entries of the source, which are not always exact repeats. Equal values may be shown once.

In the case of `O=Cc1ccc(Oc2cc3c(cc2Cl)C=C(C(=O)O)C(C(F)(F)F)O3)c(Br)c1` (stereo not shown), the IC50 on COX-1 [1] (human COX-1, standard assay) is 24.8 µM and 45.6 µM; on COX-2 [2] (human COX-2, standard assay), ≤ 0.137 µM and 0.0873 µM.

As to `Cc1c(Cl)ccc(Oc2cc3c(cc2Cl)C=C(C(=O)O)C(C(F)(F)F)O3)c1Cl` (stereo not shown), the IC50 at COX-1 [1] (setting [5]) stood at 4.17 µM; on COX-2 [2] (setting [6]), 0.454 µM; on COX-2 [3] (setting [7]), 0.0185 µM; at COX-1 [4], 1.21 µM.

Turning to `O=C(O)C1=Cc2cc(Cl)c(Oc3ccc(-c4ccc(Cl)cc4)cc3)cc2OC1C(F)(F)F` (stereo not shown), the IC50 on COX-1 [1] (human COX-1, standard assay) is greater than 100 µM; at COX-2 [2] (human COX-2, standard assay), greater than 100 µM; at COX-2 [3] (setting [8]), 1.64 µM.

Consider `Cc1cc(I)ccc1Oc1cc2c(cc1Cl)C=C(C(=O)O)C(C(F)(F)F)O2` (stereo not shown), for which the IC50 is 2.1 µM on COX-1 [1] (human COX-1, standard assay); less than 0.137 µM on COX-2 [2] (human COX-2, standard assay); less than 0.137 µM on COX-2 [3] (setting [8]).

With `O=C(O)C1=Cc2cc(Cl)cc(C#Cc3ccc(Br)cc3F)c2OC1C(F)(F)F` (stereo not shown), the IC50 on COX-1 [1] (setting [5]) stood at 26.3 µM; at COX-2 [2] (setting [6]) it was 28.3 µM; on COX-2 [3] (setting [7]) it was 5 µM; on COX-1 [4], 12.2 µM.

As for `O=C(O)C1=Cc2cc(Cl)c(Oc3ccc(-c4ccccc4)cc3Cl)cc2OC1C(F)(F)F` (stereo not shown), the IC50 at COX-1 [1] (human COX-1, standard assay) worked out at 21.8 µM; on COX-2 [2] (human COX-2, standard assay), 4.49 µM; at COX-2 [3] (setting [8]), 0.22 µM.

A word on the IC50: it is the concentration that inhibits the measured activity by half.
